{"source": "paper PMC10949176", "about": "(Clinical and Translational Science, 2024)", "test": "Stability of ABT in Hμrel coculture", "format": "in vitro ADME, human", "details": "Hμrel co-culture cells, media samples, up to 72 h", "data": [{"smiles": "Nn1nnc2ccccc21", "note": "[ABT, Aminobenzotriazole]", "values": [{"measurement": "concentrations of ABT relative to 0 h (stability)", "value": "remained stable for 72 h"}]}]}
